# Binding of CDR-mutated scFvs to a peptide of the spike HR2 region

Binding partner: SARS-CoV-2 spike HR2 peptide, sequence PDVDLGDISGINAS.

Each scFv is VH, three GGGGS repeats, VL, as in the parent Ab-14, and differs from it in the CDRs of the light chain only.
VH: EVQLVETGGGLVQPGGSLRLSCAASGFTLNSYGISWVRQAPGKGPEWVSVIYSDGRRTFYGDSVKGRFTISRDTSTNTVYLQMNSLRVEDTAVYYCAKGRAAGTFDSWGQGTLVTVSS
VL: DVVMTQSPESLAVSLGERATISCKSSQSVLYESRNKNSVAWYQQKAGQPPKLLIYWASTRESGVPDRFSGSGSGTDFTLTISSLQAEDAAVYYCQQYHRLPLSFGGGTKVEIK

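Designed CDR sequences, proposed from the first random library and measured here. Several design methods are mixed in this list. The scFvs were displayed on barcoded MATa yeast, the peptide on MATalpha yeast. After mating in shaken culture at 30 °C for 16 h, diploids were selected and their barcode pairs sequenced. Read counts were normalised to the haploid input and turned into Kd by a linear fit to BCL2-family pairs of known affinity, for each replicate. Mating was done six times.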

Variants are written as CDR1, CDR2 and CDR3 of the light chain (limits as in the source). Parent: KSSQSVLYESRNKNSVA, WASTRES, QQYHRLPLS. Variants here have more than six changes. Numbers give log10(Kd / nM), so 0 is 1 nM and 3 is 1 µM. Smaller is tighter. The mean shown is taken over the replicates in which the pair was detected. "n.d." means that the variant was in the library but no mating with the target was seen in that replicate; the authors take this as a sign of poor binding, and no number exists. The list is sorted by this average, lowest first, undetected variants last.

CDR-L1,CDR-L2,CDR-L3,"log10 Kd, replicates","log10 Kd (nM), mean"
KVSEFMRGLHQRKDSIA,DMVTRSN,QQYDRLPLS,0.08 / 0.17 / 0.16 / -0.05 / 0.37 / 0.24,0.16
KVEMSVPYEERNKNSVA,HASVRES,QQYHRLPLS,0.25 / -0.01 / 0.28 / 0.58 / 0.19 / 0.09,0.23
KLSQSQGGLQRNKNSVA,EASTREM,QQYHRLPLS,0.39 / 0.34 / 0.09 / 0.39 / 0.32 / 0.08,0.27
KVSPSVLYEDRNCNAVA,QASQRES,QQYHRLPLS,0.46 / 0.13 / 0.24 / 0.27 / 0.26 / 0.40,0.29
KIMQSYLGEWRNCNSVA,NASQRES,QQYHRLPLS,0.41 / 0.23 / 0.36 / 0.29 / 0.14 / 0.39,0.30
SLTIYTDENGLKHQSIA,GAGNRML,QQYHRLPLT,0.33 / 0.36 / 0.19 / 0.26 / 0.48 / 0.42,0.34
KFSQMSNSMSVSHSAVA,EMSTRPD,QQYNRLPLA,0.31 / 0.42 / 0.26 / 0.60 / 0.30 / 0.31,0.37
SVDHPFQGDNGRKASIA,NATIRDH,QQYFRLPLF,0.50 / 0.55 / 0.37 / 0.35 / 0.28 / 0.36,0.40
SISGFMKTLSAHRNSVA,DMTNRED,QQYDRLPLS,0.68 / 0.31 / 0.41 / 0.48 / 0.85 / 0.44,0.53
TIGQSVHETSRGKNSVA,HASTRED,QQYDRLPLS,0.37 / 0.76 / 0.59 / 0.57 / 0.77 / 0.70,0.63
QLNVNRLMNYTMNNAIA,GKTLRVD,QQYARLPLS,0.86 / 0.77 / 0.63 / 0.96 / 0.63 / 0.82,0.78
KLQQSELMESRNMNSVA,HASKRES,QDYHRLPLS,0.54 / 0.19 / 1.47 / 1.33 / 1.01 / 0.45,0.83
TISQVHEMLSHNKNSVA,DMNTRES,QQYDRLPLS,1.48 / 1.04 / 0.90 / 1.01 / 0.40 / 0.73,0.93
SLDHDVGLHTHDQKSIA,GETRVDR,QQYAHLPLS,1.05 / 1.12 / 1.23 / 0.59 / 0.71 / 0.97,0.95
TISGVMTQMQHSKNNVA,EVSMRLD,QQYFRLPLE,1.55 / 0.51 / 0.98 / 1.86 / 0.38 / 0.82,1.02
MMSQVTGSGTRHRNNVA,QTSEREP,QQYDRLPLI,1.28 / 0.86 / 0.95 / 1.27 / 1.18 / 0.73,1.04
SIRAVGCDNQRNHSNIA,DATQIED,QQYDMLPLS,0.71 / 0.87 / 1.01 / 1.05 / 1.27 / 1.46,1.06
NYENISEPMGRYDQNIA,NVSLREH,QQYFMLPLS,1.12 / 0.95 / 1.22 / 0.96 / 1.00 / 1.19,1.08
MISQVMNTLTHEGNNVA,DLQEREK,QQYFRLPLS,0.78 / 1.30 / 2.12 / 1.15 / 1.47 / 1.56,1.40
KVSEFMKGLMSRGDSIA,DNVTRSN,QQYDRLPLS,1.13 / 1.91 / 0.60 / 1.78 / 1.78 / 1.29,1.42
KVSEFMRGLMGRKDSIA,DNNTRSN,QQYDRLPLS,1.77 / 1.20 / 1.16 / 1.74 / 1.67 / 1.74,1.55
MISQLFMYGYRNYNSIA,QAETREK,QQYDRLPLE,2.14 / 1.71 / 1.62 / 1.58 / 1.47 / 1.39,1.65
MISQLMNLGQFAINSVA,QATIRNA,QQYDRLPLA,n.d. / n.d. / 1.27 / 2.09 / 1.70 / 1.71,1.69
KLLQTVMNGKRNRNNVA,HMTMRES,QQYFRLPLS,n.d. / 1.72 / n.d. / n.d. / n.d. / n.d.,1.72
MISQLMNMGQFAINSVA,QASERNV,QQYDRLPLI,1.85 / 1.54 / 1.31 / 2.11 / 1.97 / 1.64,1.74
TLVGNIQGGGWAIKSVA,DAVQRVN,QQYYRLPLS,n.d. / n.d. / n.d. / n.d. / 1.88 / n.d.,1.88
MISESVMYESRNRNSVA,DNSTRED,QCYDRLPLS,2.18 / 1.83 / 1.89 / 1.55 / 2.20 / 2.11,1.96
MISQLYNMGTFAINSVA,QASIRNE,QQYDRLPLA,n.d. / n.d. / 1.78 / n.d. / 2.61 / 2.22,2.20
KVSEFRRGLMSKQDSIA,DNVTRAN,QQYDRLPLS,n.d. / n.d. / n.d. / 1.51 / n.d. / 3.08,2.29
IVSQLMLWGYHQKNSIA,EAETRLN,QQYERLPLF,n.d. / 2.11 / n.d. / n.d. / 2.66 / n.d.,2.38
TLSQMSGVEAVKHNNVA,ENSTREN,QQYDRLPLA,n.d. / n.d. / n.d. / n.d. / n.d. / 2.65,2.65
KSLQSVLYESRNKFSVS,HASTVED,AQYHRLPLS,n.d. / n.d. / n.d. / n.d. / n.d. / n.d.,n.d.
QIARAMYHGLNDNQNIA,DAMTYIK,QQYSRLPLF,n.d. / n.d. / n.d. / n.d. / n.d. / n.d.,n.d.
ELFFNDFQLAIQSNNIA,HASLREV,QQYAHLPLV,n.d. / n.d. / n.d. / n.d. / n.d. / n.d.,n.d.

The last 5 entries again:

{"CDR-L1": "IVSQLMLWGYHQKNSIA", "CDR-L2": "EAETRLN", "CDR-L3": "QQYERLPLF", "log10 Kd, replicates": "n.d. / 2.11 / n.d. / n.d. / 2.66 / n.d.", "log10 Kd (nM), mean": "2.38"}
{"CDR-L1": "TLSQMSGVEAVKHNNVA", "CDR-L2": "ENSTREN", "CDR-L3": "QQYDRLPLA", "log10 Kd, replicates": "n.d. / n.d. / n.d. / n.d. / n.d. / 2.65", "log10 Kd (nM), mean": "2.65"}
{"CDR-L1": "KSLQSVLYESRNKFSVS", "CDR-L2": "HASTVED", "CDR-L3": "AQYHRLPLS", "log10 Kd, replicates": "n.d. / n.d. / n.d. / n.d. / n.d. / n.d.", "log10 Kd (nM), mean": "n.d."}
{"CDR-L1": "QIARAMYHGLNDNQNIA", "CDR-L2": "DAMTYIK", "CDR-L3": "QQYSRLPLF", "log10 Kd, replicates": "n.d. / n.d. / n.d. / n.d. / n.d. / n.d.", "log10 Kd (nM), mean": "n.d."}
{"CDR-L1": "ELFFNDFQLAIQSNNIA", "CDR-L2": "HASLREV", "CDR-L3": "QQYAHLPLV", "log10 Kd, replicates": "n.d. / n.d. / n.d. / n.d. / n.d. / n.d.", "log10 Kd (nM), mean": "n.d."}

The authors averaged sequences with at least three values out of six and counted those with two or fewer as poor binders. The parent sequence was in this pool as ten entries: three were never detected, three once, and four in most replicates, with averages from 0.34 to 2.37. Values of this round are not directly comparable with the first-round values of the same sequences. Empty control strains, which show no peptide, gave a signal in 4% of pairings with all light chain designs; the median was 2.64 and 95% of these signals were weaker than 1.59. No background was subtracted.

The measurements come from Li et al. 2023 (doi:10.1038/s41467-023-39022-2) through the FLAb antibody collection.